# System: HCoV-229E
# Test: Viral replication inhibition assay: HCoV-229E in MRC5 cells, PFU assay
# Type: cell-based, Human Coronavirus 229E
smiles,measurement,setting,value
"Oc1ccc(/C=C/c2cc(O)cc(O)c2)cc1 [Resveratrol, resveratrol]","HCoV-229E replication, low viral load (in words)","MOI = 0.01, Figure 2",inhibition of replication
same,effect of combinatory treatment on HCoV-229E (in words),"combinations of lopinavir/ritonavir, chloroquine, resveratrol, MOI 0.01, Figure 2B",did not observe any synergistic effect
same,effect when cells were treated before or after the infection (in words),"pre-treated 3 h or post-treated 4 h, MOI 1, Figure 3",did not observe a significant difference
